# Laboratory results as given in the Kinase Knowledgebase extract (Sharma et al. 2016).
# Chains of the proteins cited; added tags and fusions are not shown.
# UniProt Q16539, whole entry, looked up: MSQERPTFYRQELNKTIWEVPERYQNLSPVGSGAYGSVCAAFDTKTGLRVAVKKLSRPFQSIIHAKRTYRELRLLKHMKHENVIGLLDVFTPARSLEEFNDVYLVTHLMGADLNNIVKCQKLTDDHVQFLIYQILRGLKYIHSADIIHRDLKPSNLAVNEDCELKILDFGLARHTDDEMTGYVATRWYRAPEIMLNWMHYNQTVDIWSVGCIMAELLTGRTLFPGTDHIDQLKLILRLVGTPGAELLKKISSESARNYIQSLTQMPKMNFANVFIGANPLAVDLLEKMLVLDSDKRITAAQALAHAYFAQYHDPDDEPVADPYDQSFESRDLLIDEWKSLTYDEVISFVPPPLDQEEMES
# Target: MAPK14 (human) (UniProt Q16539)
# Test: Inhibition of MAPK14 Kinase Activity
row,IC50 [nM],Structure (SMILES)
1,3.9,CC(C)Cn1c(N)nc2ccc(-c3[nH]c(C(C)(C)C)nc3-c3ccc(F)cc3F)nc21
2,3.9,CC(C)Cn1c(N)nc2ccc(-c3[nH]c(-c4c(Cl)cccc4Cl)nc3-c3ccc(F)cc3F)nc21
3,3.2,CC(C)(C)Cn1c(N)nc2ccc(-c3[nH]c(-c4c(F)cccc4Cl)nc3-c3ccccc3)nc21
